## Antibody variant affinities, Ab-91 heavy chain, assay 2

Target peptide (SARS-CoV-2 spike, HR2 region): PDVDLGDISGINAS

Ab-91 is the parent antibody, in scFv form: VL, then a (GGGGS)3 linker, then VH. The light chain is unchanged in all variants.
VL: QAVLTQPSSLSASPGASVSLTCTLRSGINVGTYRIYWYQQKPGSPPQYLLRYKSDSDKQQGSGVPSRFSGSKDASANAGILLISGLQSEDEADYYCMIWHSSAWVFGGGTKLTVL
VH: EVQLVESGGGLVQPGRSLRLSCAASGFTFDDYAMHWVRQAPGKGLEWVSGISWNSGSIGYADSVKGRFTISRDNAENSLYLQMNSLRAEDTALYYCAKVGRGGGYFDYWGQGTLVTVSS

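Variants in AAYL51 differ from the parent at up to three CDR positions; double and triple changes were sampled at random. The assay is AlphaSeq: two haploid yeast populations carry antibody and antigen on their surface. Binding brings cells together so that they mate, and sequencing counts the barcode pairs among the diploids. Read counts were normalised to the haploid input and turned into Kd by a linear fit to BCL2-family pairs of known affinity, for each replicate. Each pool was mated in three replicate cultures.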

Changes read parent residue, position, new residue, counted from the first residue of the VH shown. All variants listed here change Y105 of the VH, counted from its first residue. The Kd shown is the geometric mean over detected replicates; a lower Kd is a better binder. Where no diploid with the target was found in any replicate, the entry reads "nd": below detection, most likely a poor binder, though not proof of it.

| changes | Kd (apparent) | seen in | control signals |
|---|---|---|---|
| Y60C G100S Y105M | 270 µM | 3/3 | 5/9 |
| A33G Y105H F106Y | 190 µM | 3/3 | 6/9 |
| Y60R G103I Y105K | 270 µM | 1/3 | 2/9 |
| F29V N54W Y105A | nd | 0/3 | 1/9 |
| H35V I58M Y105W | 89 µM | 1/3 | 1/9 |
| S55C Y105V | 380 nM | 3/3 | 6/9 |
| F29G Y105D Y108S | nd | 0/3 | 1/9 |
| G56A G100H Y105H | 40 nM | 3/3 | 0/9 |
| G56P G59Y Y105E | 190 µM | 2/3 | 5/9 |
| S52M G103R Y105D | 10 µM | 3/3 | 2/9 |
| S57G Y105I D107V | 520 µM | 1/3 | 0/9 |
| A33G G100I Y105F | nd | 0/3 | 1/9 |
| A33Q G104F Y105P | 1.5 µM | 1/3 | 3/9 |
| F29T A61V Y105G | 19 µM | 1/3 | 4/9 |
| R101D Y105H | 83 µM | 1/3 | 2/9 |
| T28I Y105F F106S | 18 nM | 3/3 | 0/9 |
| I58C Y60K Y105C | nd | 0/3 | 0/9 |
| K65N Y105Q F106I | 620 nM | 1/3 | 0/9 |
| T28Y G50K Y105K | 7.6 µM | 1/3 | 0/9 |
| S52C G56D Y105N | 200 µM | 3/3 | 6/9 |
| S55I S63Y Y105H | nd | 0/3 | 0/9 |
| D30C G56A Y105G | 5.1 µM | 2/3 | 1/9 |
| A33H K65W Y105E | nd | 0/3 | 0/9 |
| G59V Y105K F106M | nd | 0/3 | 1/9 |
| G59A S63G Y105T | 6.5 µM | 1/3 | 1/9 |
| M34C N54R Y105S | nd | 0/3 | 1/9 |
| G59T Y105N | 12 µM | 1/3 | 2/9 |
| W53I G56F Y105I | 26 µM | 3/3 | 4/9 |
| A33R G104T Y105M | 19 µM | 2/3 | 0/9 |
| Y32F H35C Y105F | nd | 0/3 | 1/9 |
| G50A S63T Y105R | nd | 0/3 | 1/9 |
| I51R G100V Y105M | 77 µM | 2/3 | 8/9 |
| M34H I51T Y105R | nd | 0/3 | 1/9 |
| F29W W53A Y105F | 1.3 µM | 3/3 | 2/9 |
| F29A A61S Y105H | 100 µM | 2/3 | 4/9 |
| N54W Y105L | nd | 0/3 | 0/9 |
| I51A G104W Y105R | nd | 0/3 | 0/9 |
| G56Y Y60D Y105G | nd | 0/3 | 2/9 |
| S57P D62P Y105I | 260 µM | 3/3 | 3/9 |
| W53E S63V Y105I | 510 µM | 2/3 | 5/9 |
| G26F R101L Y105I | 680 nM | 1/3 | 2/9 |
| I58R K65G Y105F | 65 nM | 3/3 | 1/9 |
| G26A Y105G D107R | 44 nM | 3/3 | 2/9 |
| F27T Y105H | 2.1 µM | 2/3 | 3/9 |
| S63Q Y105I | 110 nM | 3/3 | 2/9 |
| T28S Y60H Y105I | 30 µM | 2/3 | 0/9 |
| A33Q S63W Y105T | nd | 0/3 | 1/9 |
| D30M V99F Y105A | 540 µM | 2/3 | 7/9 |
| F29M H35P Y105P | nd | 0/3 | 1/9 |
| H35W K65M Y105K | 130 µM | 2/3 | 3/9 |
| G26C Y105C Y108F | 2.4 µM | 1/3 | 1/9 |
| H35Y V99G Y105F | nd | 0/3 | 0/9 |
| D31V Y32S Y105N | nd | 0/3 | 1/9 |
| I51P S55N Y105T | 69 µM | 1/3 | 3/9 |
| Y32V H35M Y105F | nd | 0/3 | 2/9 |
| F27A Y105C F106D | nd | 0/3 | 0/9 |
| M34K S55D Y105M | 170 µM | 1/3 | 4/9 |
| T28Q G59N Y105H | 5.9 µM | 1/3 | 4/9 |
| F29R R101N Y105Q | nd | 0/3 | 4/9 |
| G26R G50T Y105T | 200 µM | 1/3 | 4/9 |
| H35I Y60C Y105W | nd | 0/3 | 5/9 |
| S52T G102Y Y105C | 49 µM | 2/3 | 4/9 |
| I51G G59L Y105F | nd | 0/3 | 2/9 |
| D31P Y60W Y105Q | 19 µM | 1/3 | 3/9 |
| G56E R101K Y105S | nd | 0/3 | 3/9 |
| F29H G100P Y105Q | 230 µM | 1/3 | 2/9 |
| S52G G59L Y105V | 2.9 µM | 1/3 | 3/9 |
| F29G G50N Y105V | nd | 0/3 | 4/9 |
| S57W R101E Y105A | 10 µM | 1/3 | 0/9 |
| H35E Y105L D107L | nd | 0/3 | 3/9 |
| I51W Y105R F106Q | nd | 0/3 | 5/9 |

Repeated from above, the 12 best binders with a signal in all replicates:

| changes | Kd (apparent) | seen in | control signals |
|---|---|---|---|
| T28I Y105F F106S | 18 nM | 3/3 | 0/9 |
| G56A G100H Y105H | 40 nM | 3/3 | 0/9 |
| G26A Y105G D107R | 44 nM | 3/3 | 2/9 |
| I58R K65G Y105F | 65 nM | 3/3 | 1/9 |
| S63Q Y105I | 110 nM | 3/3 | 2/9 |
| S55C Y105V | 380 nM | 3/3 | 6/9 |
| F29W W53A Y105F | 1.3 µM | 3/3 | 2/9 |
| S52M G103R Y105D | 10 µM | 3/3 | 2/9 |
| W53I G56F Y105I | 26 µM | 3/3 | 4/9 |
| A33G Y105H F106Y | 190 µM | 3/3 | 6/9 |
| S52C G56D Y105N | 200 µM | 3/3 | 6/9 |
| S57P D62P Y105I | 260 µM | 3/3 | 3/9 |

Parent in this assay: reference entry 72 nM, copy in this library 7.5 nM. Nonspecific signal, from three strains lacking the peptide, appeared in 21% of pairings of library AAYL51, centred on 34 µM (5% of these signals below 1.8 µM); values are not corrected for it. For each scFv, signals with the empty controls are counted beside the result.

Reference: Engelhart et al. 2022, doi:10.1038/s41597-022-01779-4. File: FLAb, binding data.